Measured values reported in patent EP4810483A1, “6- AND 5-HETEROARYL DERIVATIVES AND USE THEREOF” (CMS Research & Development Pte. Ltd., priority 2023, dated 2025).

By UniProt entry, the sequences of proteins in these tests, tags left out. Where a name states a change or a piece, a line headed by the entry shows the natural chain unless it says otherwise.
UniProt P11712, whole entry: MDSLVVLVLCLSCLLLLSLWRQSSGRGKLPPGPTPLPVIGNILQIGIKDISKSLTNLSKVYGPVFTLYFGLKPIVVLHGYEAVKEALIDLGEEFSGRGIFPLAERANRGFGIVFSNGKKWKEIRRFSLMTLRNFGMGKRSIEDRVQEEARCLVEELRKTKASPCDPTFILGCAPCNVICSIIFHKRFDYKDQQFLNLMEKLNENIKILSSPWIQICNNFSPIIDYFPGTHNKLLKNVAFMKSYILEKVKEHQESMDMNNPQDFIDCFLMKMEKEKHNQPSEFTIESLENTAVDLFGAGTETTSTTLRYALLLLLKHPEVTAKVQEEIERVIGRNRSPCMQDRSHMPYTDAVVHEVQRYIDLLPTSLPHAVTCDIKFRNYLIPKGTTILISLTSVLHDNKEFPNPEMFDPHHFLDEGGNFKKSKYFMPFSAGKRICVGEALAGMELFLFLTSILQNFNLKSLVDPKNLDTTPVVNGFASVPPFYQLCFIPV
UniProt P05177, whole entry: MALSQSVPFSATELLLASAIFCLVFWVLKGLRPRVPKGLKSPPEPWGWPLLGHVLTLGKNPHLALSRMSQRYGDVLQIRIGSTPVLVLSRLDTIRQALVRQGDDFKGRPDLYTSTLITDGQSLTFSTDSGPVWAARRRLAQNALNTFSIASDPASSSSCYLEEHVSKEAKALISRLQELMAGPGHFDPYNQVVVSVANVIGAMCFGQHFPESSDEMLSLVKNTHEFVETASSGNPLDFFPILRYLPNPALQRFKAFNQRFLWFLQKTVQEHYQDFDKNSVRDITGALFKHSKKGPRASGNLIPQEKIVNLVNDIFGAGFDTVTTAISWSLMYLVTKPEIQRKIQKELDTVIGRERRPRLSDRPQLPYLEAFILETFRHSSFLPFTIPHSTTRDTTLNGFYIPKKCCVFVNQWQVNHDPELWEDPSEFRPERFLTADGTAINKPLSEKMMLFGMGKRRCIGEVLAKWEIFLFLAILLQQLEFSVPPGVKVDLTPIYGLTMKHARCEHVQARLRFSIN
UniProt P33261, whole entry: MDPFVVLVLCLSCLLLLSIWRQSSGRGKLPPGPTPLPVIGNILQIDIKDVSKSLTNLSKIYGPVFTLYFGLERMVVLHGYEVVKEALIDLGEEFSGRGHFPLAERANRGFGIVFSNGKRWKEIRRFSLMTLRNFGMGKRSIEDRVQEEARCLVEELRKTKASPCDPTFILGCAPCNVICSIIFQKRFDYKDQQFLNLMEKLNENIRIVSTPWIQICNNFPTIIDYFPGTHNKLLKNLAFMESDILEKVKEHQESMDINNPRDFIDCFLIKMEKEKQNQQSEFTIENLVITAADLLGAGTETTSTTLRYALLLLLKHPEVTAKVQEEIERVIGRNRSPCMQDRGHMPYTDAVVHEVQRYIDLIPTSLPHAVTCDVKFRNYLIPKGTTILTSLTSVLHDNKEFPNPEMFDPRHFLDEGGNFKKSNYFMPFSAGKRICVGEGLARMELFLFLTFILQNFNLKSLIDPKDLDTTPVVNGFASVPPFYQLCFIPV
UniProt P10635, whole entry: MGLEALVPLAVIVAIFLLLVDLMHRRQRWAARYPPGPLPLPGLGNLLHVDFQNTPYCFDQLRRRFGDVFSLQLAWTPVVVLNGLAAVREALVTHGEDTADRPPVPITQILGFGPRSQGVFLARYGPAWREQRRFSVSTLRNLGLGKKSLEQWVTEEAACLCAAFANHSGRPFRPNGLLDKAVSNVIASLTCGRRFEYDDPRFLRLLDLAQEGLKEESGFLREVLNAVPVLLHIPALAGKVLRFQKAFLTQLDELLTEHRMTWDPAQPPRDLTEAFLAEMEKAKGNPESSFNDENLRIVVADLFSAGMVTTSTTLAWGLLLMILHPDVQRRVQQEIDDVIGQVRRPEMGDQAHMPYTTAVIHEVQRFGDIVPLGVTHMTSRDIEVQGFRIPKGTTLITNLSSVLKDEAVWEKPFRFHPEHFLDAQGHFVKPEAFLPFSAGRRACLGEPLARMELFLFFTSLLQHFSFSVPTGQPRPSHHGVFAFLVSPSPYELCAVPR
UniProt O43525: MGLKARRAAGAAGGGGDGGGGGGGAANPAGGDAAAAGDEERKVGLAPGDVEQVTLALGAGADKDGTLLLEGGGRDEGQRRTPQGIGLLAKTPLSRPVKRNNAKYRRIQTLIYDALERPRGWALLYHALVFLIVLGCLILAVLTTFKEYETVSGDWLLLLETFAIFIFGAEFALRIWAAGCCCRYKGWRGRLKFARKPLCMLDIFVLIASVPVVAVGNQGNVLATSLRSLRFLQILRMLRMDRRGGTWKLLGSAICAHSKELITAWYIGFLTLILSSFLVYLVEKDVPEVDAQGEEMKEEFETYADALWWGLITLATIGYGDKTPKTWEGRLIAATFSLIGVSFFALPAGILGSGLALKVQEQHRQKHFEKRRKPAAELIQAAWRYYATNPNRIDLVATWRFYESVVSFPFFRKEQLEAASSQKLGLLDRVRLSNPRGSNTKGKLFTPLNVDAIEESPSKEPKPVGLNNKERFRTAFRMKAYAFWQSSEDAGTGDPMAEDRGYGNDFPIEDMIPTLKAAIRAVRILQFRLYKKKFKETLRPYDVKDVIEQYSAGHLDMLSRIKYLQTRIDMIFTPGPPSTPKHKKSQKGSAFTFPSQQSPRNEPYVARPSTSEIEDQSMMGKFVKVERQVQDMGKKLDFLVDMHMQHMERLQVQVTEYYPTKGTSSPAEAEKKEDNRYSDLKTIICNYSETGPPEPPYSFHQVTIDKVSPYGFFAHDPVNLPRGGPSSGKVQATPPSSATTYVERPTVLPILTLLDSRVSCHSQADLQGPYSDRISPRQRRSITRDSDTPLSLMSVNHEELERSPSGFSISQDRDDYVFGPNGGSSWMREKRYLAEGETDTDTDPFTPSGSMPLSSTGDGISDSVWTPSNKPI
UniProt O43526, whole entry: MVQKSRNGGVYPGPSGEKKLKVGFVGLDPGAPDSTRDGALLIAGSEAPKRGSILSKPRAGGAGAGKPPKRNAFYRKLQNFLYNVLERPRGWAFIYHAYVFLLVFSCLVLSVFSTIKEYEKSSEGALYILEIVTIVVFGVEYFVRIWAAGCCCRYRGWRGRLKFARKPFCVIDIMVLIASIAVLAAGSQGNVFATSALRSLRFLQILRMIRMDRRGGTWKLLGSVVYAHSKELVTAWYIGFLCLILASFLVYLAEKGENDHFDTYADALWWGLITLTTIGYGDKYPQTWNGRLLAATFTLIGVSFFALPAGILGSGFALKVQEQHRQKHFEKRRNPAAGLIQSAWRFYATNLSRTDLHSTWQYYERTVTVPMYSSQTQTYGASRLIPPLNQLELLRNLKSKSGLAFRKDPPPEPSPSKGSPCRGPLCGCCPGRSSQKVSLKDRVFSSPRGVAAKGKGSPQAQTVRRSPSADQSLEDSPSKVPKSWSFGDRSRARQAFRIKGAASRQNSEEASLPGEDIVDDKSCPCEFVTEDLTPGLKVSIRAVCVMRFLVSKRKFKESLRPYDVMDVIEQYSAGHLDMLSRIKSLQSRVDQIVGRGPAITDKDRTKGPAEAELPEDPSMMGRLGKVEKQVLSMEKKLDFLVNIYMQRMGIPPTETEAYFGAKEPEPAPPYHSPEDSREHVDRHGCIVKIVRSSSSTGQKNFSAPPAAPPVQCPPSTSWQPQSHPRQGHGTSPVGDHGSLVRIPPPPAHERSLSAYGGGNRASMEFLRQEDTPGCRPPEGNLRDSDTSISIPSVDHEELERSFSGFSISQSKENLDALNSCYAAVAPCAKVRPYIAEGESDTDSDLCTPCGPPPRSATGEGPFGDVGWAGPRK

Tests used:
[1] = biological target: CYP2C9 (Homo sapiens, UniProt P11712); test: Drug-drug interaction evaluation: CYP inhibition in human liver microsomes (cocktail method)
Protocol: (§1) The cocktail method using specific probe substrates for CYP1A2, CYP2C9, CYP2C19, CYP2D6 and CYP3A was used to evaluate the inhibitory effect of the compounds on the activity of human liver microsomal cytochrome P450 isoenzymes (CYP1A2, CYP2C9, CYP2C19, CYP2D6 and CYP3A).
(§2) Human liver microsomes, probe substrates, positive control inhibitors, and reduced nicotinamide adenine dinucleotide phosphate (NADPH).
(§3) To the corresponding wells of a reaction plate, 20 µL of substrate solution was added; to blank wells, 20 µL of potassium phosphate buffer was added.
(§4) To the corresponding wells, 2 µL of test compound and positive control working solution were added; to inhibitor-free and blank wells, 2 µL of solvent was added.
(§5) Human liver microsome working solution was prepared, and 158 µL of human liver microsome working solution was added to each well of the reaction plate.
(§6) The plate was pre-incubated at 37.0°C for 10 minutes.
(§7) To start the reaction, 20 µL of NADPH cofactor working solution was added to the reaction plate.
(§8) After incubation in a 37.0°C water bath with mixing for 10 minutes, 400 µL of stop solution was added to terminate the reaction.
(§9) The sample plate was centrifuged at 4000 rpm for 20 minutes.
(§10) 200 µL of supernatant was taken and mixed with 100 µL of pure water as diluent, and the plate was shaken to mix well.
(§11) Analysis was performed by liquid chromatography-tandem mass spectrometry (LC-MS/MS).
(§12) Using the percentage of remaining activity as the ordinate and the test compound concentration as the abscissa, a non-linear regression analysis was performed with a three-parameter or four-parameter model using XL fit software to calculate the IC50 value.
(§13) y = (max)/(1 + (((x)/(IC50)))^−hillslope) [formula]
(§14) y = min + (max−min)/(1 + (((x)/(IC50)))^−hillslope) [formula]
(§15) max = maximum enzyme activity; min = minimum enzyme activity; x = concentration of test compound or positive control inhibitor; y = enzyme activity at the corresponding concentration; hillslope = slope; IC50 = half-maximal inhibitory concentration. The four-parameter equation was used when the minimum enzyme activity was within ±10%; otherwise the three-parameter equation was used.

[2] = biological target: CYP1A2 (Homo sapiens, UniProt P05177); test: as above
Protocol: as §1, §2, §3, §4, §5, §6, §7, §8, §9, §10, §11, §12, §13, §14, §15

[3] = biological target: CYP2C19 (Homo sapiens, UniProt P33261); test: as above
Protocol: as §1, §2, §3, §4, §5, §6, §7, §8, §9, §10, §11, §12, §13, §14, §15

[4] = biological target: CYP2D6 (Homo sapiens, UniProt P10635); test: as above
Protocol: as §1, §2, §3, §4, §5, §6, §7, §8, §9, §10, §11, §12, §13, §14, §15

[5] = Pharmacokinetic evaluation in mice (IV and PO); type: in vivo; settings: mouse, plasma, CD-1 mice, dose IV:0.5, PO:2 mg/kg
Protocol: Test Method 2: Pharmacokinetic Evaluation in Mice
Assay method: Test compounds were mixed with 5% DMSO / 60% polyethylene glycol (PEG400) / 35% water, vortexed and sonicated to obtain a clear 0.2 mg/mL solution, which was then filtered through a microporous membrane before use. Male CD-1 mice weighing 25-35 g were selected. The candidate compound solution was administered intravenously at a dose of 1 mg/kg. The candidate compound solution was orally administered at a dose of 5 mg/kg after fasting. Blood samples (25 µL each) were collected at 0.083, 0.25, 0.5, 1, 2, 4, 8, 12 and 24 hours after administration, and placed into commercial anticoagulant tubes pre-containing EDTA-K2. The tubes were centrifuged for 10 minutes to separate plasma, which was then stored at -60°C. The content of the target compound in plasma samples was determined by LC/MS/MS method, and pharmacokinetic parameters were calculated using Phoenix WinNonlin software (Pharsight, USA). […]

[6] = biological target: T1, hKCNQ2/3 (Homo sapiens, UniProt O43525+O43526); test: cell-based
T1 construct: expressed in transfected cells; host or cells: CHO
From the text: Test Method 1: hKCNQ2/3 Thallium Flux Assay
Test Objective: To test the in vitro concentration-response relationship of compounds using FLIPR thallium flux assay in CHO cell lines stably expressing hKCNQ2/3.
According to the split ratio, the cells were transferred to another T-75 flask containing complete cell growth medium. Note: To maintain logarithmic growth, the cells should be kept in a subconfluent monolayer state. Based on the cell doubling time, the cells were passaged every 2-3 days.
• (1) Day 1 - Cell preparation: Cells were digested as described above, and cell density and viability were determined using a Cell Countess. […] 2) Each 1 mM solution of K2SO4 and Tl2SO4 contains 2 mM K^+ and Tl^+; the final concentration should be calculated based on the ion concentration. 3) TlCl readily precipitates and a chloride-free buffer is required. • (3) Day 2 -Assay testing: Once the cells reached the desired confluence, the cell assay plates were removed from the incubator. […] After setting up the tips, baseline readings were taken for 60 seconds, then 12.5 µL was added from the composite plate (3×) to the cell assay plate, and data were recorded for at least 5 minutes. • (4) Data processing: Maximum signals were generated by the FLIPR software. […]
• (1) Day 1 - Cell preparation: Cells were digested as described above, and cell density and viability were determined using a Cell Countess. […]

Structure (SMILES)	IC50 [1] [µM]	IC50 [2] [µM]	IC50 [3] [µM]	IC50 [4] [µM]	AUC(0-t) ([5]; PO, read-out: Area under the concentration-time curve AUC0-last PO) [µM·h]	Cmax ([5]; read-out: Peak plasma concentration Cmax) [nM]	EC50 [6] [µM]
Cc1c(NC(=O)CC(C)(C)C)n(C)c2cc(Nc3ccc(C(F)(F)F)cc3)ccc12 [Compound 5]	10.4	> 50	18.8	> 50	5.32	491	–
Cc1cccc(Nc2ccc3c(C)c(NC(=O)CC(C)(C)C)n(C)c3c2)n1 [Compound 32]	–	–	–	–	–	–	0.33
Cc1cccc(Nc2ccc3c(C)c(NC(=O)CC4(C)CC4)n(C)c3c2)n1 [Compound 34]	–	–	–	–	–	–	0.31
